# Measurements taken from patent US20150148403A1 (ACADEMIA SINICA, published 2015).
# T1: MBP-fused USP37 recombinant protein (human, UniProt Q86T82 1-979)
# T1 construct: Recombinant fusion protein from pMAL-c2X; also called MBP-USP37; recombinant USP37
# T1 sequence: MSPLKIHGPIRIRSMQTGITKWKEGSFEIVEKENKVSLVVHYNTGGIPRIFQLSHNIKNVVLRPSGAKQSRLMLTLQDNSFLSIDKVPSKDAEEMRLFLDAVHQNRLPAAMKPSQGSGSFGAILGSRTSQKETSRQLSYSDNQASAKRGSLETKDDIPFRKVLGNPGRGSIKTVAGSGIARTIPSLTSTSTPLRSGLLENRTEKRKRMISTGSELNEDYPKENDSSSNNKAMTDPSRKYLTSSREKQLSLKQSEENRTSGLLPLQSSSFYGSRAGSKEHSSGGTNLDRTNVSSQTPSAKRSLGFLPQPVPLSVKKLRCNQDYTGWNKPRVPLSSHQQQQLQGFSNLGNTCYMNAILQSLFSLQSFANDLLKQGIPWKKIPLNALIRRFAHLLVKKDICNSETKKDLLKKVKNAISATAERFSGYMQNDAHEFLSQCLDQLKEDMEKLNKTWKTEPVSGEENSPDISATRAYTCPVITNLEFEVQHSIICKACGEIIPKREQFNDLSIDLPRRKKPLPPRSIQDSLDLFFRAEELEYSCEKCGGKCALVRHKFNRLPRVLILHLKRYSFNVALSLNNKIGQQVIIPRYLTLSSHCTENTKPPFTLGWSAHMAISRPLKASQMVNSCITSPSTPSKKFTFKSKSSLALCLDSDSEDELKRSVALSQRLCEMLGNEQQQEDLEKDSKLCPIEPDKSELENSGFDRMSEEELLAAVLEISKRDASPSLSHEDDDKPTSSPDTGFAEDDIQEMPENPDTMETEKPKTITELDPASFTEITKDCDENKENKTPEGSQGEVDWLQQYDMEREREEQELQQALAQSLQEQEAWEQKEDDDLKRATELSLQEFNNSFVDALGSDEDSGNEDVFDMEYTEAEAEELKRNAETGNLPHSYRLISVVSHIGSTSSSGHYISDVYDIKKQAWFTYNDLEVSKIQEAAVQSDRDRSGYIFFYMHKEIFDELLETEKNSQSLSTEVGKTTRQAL
# B1: recombinant GST (other, UniProt P08515 1-218, looked up)
# chain: MSPILGYWKIKGLVQPTRLLLEYLEEKYEEHLYERDEGDKWRNKKFELGLEFPNLPYYIDGDVKLTQSMAIIRYIADKHNMLGGCPKERAEISMLEGAVLDIRYGVSRIAYSKDFETLKVDFLSKLPEMLKMFEDRLCHKTYLNGDHVTHPDFMLYDALDVVLYMDPMCLDAFPKLVCFKKRIEAIPQIDKYLKSSKYIAWPLQGWQATFGGGDHPPK
# notes: Negative control in the GST pull-down
# Target: T1, MBP-fused USP37 recombinant protein
# Assay: in vitro GST pull-down, Western blot
# Experimental: GST pull-down assay was performed as described. Two μg of recombinant GST or GST-PLZF/RARA was incubated with 2 μg of MBP-USP37 and immobilized Glutathione beads (Thermo Scientific) in binding buffer (10 mM HEPES pH 7.5, 0.5 mM DTT, 0.5 mM EDTA, 0.1% NP-40, and 50 mM NaCl) for 4 hr at 4° C. After washing three times, the samples were then subjected to Western analysis. For in vitro deubiquitination assay, poly-ubiquitinated PLZF/RARA proteins immunoprecipitated from HEK-293T cells expressing Flag-tagged PLZF/RARA and Myc-tagged Ub were incubated with recombinant USP37 protein in 100 μl of deubiquitination buffer (50 mM Tri-HCl pH 8.0, 5 mM MgCl₂, and 1 mM DTT) for 2 hr at 37 C. The deubiquitination reaction was stopped by adding SDS sample buffer and bound proteins were extracted from beads for Western analysis.
# Given that USP37 regulates PLZF/RARA protein steady-state level, we further assessed whether USP37-regulated PLZF/RARA protein level is through a protein interaction between USP37 and PLZF/RARA. […] We further substantiated the complex formation of PLZF/RARA with endogenous USP37, using U937 cells conditionally expressing Flag-tagged PLZF/RARA by adding doxycycline. Endogenous USP37 could form complexes with PLZF/RARA in cells by immunoprecipitation with either anti-USP37 or anti-Flag antibody (FIG. 3b). […]
binder,measurement,value
B1,binding result,no binding (tested: 2 µg of each protein)
